# Data published in patent US12227521B2, “CGRP antagonist compounds” (Nxera Pharma UK Limited, priority 2019, dated 2025).
# The chains behind the UniProt entries cited, without tags or fusion partners. Residues count along the entry.
# UniProt O60894, 27-148 limits assumed: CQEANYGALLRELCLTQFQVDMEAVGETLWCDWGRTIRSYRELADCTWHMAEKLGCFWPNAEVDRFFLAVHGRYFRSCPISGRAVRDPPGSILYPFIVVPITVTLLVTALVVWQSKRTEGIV
# UniProt Q16602, 23-461 limits assumed: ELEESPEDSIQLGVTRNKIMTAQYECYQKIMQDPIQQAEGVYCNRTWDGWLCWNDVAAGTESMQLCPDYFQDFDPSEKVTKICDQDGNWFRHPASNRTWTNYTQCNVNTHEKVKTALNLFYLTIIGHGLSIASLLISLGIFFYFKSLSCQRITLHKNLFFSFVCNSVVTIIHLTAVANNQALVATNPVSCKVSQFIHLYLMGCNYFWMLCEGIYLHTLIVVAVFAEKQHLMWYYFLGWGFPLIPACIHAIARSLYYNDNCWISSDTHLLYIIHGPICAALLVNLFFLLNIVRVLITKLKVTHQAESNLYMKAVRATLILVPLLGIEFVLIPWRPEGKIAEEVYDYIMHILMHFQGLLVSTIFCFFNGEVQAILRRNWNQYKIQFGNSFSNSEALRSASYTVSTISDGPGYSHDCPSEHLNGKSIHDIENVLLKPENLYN
# Molecular target: human CGRP receptor (Homo sapiens, UniProt O60894+Q16602)
# Test: cAMP functional assay (HTRF cAMP dynamic-2) in SK-N-MC cells
# Conditions: SK-N-MC cells endogenously expressing human CGRP receptor; challenge with EC80 human CGRP (0.3 nM); functional pKb converted from pIC50 by modified Cheng-Prussoff equation
# Protocol: cAMP production following receptor activation was determined using the Homogeneous Time-Resolved Fluorescence (HTRF) cAMP dynamic-2 assay (Cisbio, France). The human neuroblastoma cell line SK-N-MC endogenously expressing the human CGRP receptor was seeded at a density of 12,500 cells/well in solid walled 96 well half area plates (Costar, Catalog Number 3688, Corning Life Sciences, Germany). After 16 h incubation at 37° C. media was removed and cells were incubated at 37° C. for 30 min in serum free media containing 500 μM IBMX (Tocris, Abingdon, UK, Catalog Number 2845) and increasing concentrations of test antagonist. Following this cells were challenged with an EC80 concentration of human CGRP (0.3 nM) for a further 30 m at 37°) and then cAMP production was determined as manufacturer's instructions before plates were read on a PheraStar fluorescence plate reader (BMG LabTech, Germany). IC50 values were derived from the inhibition curve. The pIC50 values (where pIC50=−log10 IC50) were converted to a functional pKb value using a modified Cheng-Prussoff equation where Kd=agonist EC50 and L hot=agonist challenge concentration. The pKb values of certain compounds of the invention are detailed in Table 5.
row,Structure (SMILES),CGRP pKb
1,"CC1C(c2c(F)ccc(F)c2F)CC2NC(=O)c3cnc4c(c3)C[C@@]3(C4)C(=O)Nc4ncc(cc43)/C=C/CCOCCOCCN1C2=O (single isomer, unassigned) [1-4 Isomer 2]",9.9
2,"O=C1NC2CC(c3ccccc3)CN(CCOCCOC/C=C/c3cnc4c(c3)[C@]3(Cc5ccc1cc5C3)C(=O)N4)C2=O (single isomer, unassigned) [10-1 Isomer 1]",7.6
3,"CC1C(c2cccc(F)c2F)CC2NC(=O)c3cnc4c(c3)C[C@@]3(C4)C(=O)Nc4ncc(cc43)/C=C/COCCOCCN1C2=O (single isomer, unassigned) [4-2 Isomer 1]",11.1
4,"CC1C(c2c(F)ccc(F)c2F)CC2NC(=O)c3cnc4c(c3)C[C@@]3(C4)C(=O)Nc4ncc(cc43)/C=C/CCCOCCCN1C2=O (single isomer, unassigned) [1-7 Isomer 2]",8.9
5,"CC1C(c2ccccc2)CC2NC(=O)c3cnc4c(c3)C[C@@]3(C4)C(=O)Nc4ncc(cc43)/C=C/COCCCCCN1C2=O (single isomer, unassigned) [2-2 Isomer 1]",10.5
6,"CC1C(c2c(F)ccc(F)c2F)CC2NC(=O)c3cnc4c(c3)C[C@@]3(C4)C(=O)Nc4ncc(cc43)/C=C/COCCCCCN1C2=O (single isomer, unassigned) [1-2 Isomer 2]",9.3
7,"O=C1N[C@H]2C[C@@H](c3c(F)ccc(F)c3F)CN(CCCCCOC/C=C/c3cnc4c(c3)[C@@]3(Cc5cc1cnc5C3)C(=O)N4)C2=O (single isomer, unassigned)",10.8
8,"CC1C(c2c(F)ccc(F)c2F)CC2NC(=O)c3cnc4c(c3)C[C@@]3(C4)C(=O)Nc4ncc(cc43)/C=C/COCCOCCN1C2=O (single isomer, unassigned)",9.3
9,"CC1C(c2ccccc2)CC2NC(=O)c3cnc4c(c3)C[C@@]3(C4)C(=O)Nc4ncc(cc43)/C=C/CN(C)CCCCCN1C2=O (single isomer, unassigned)",10.6
10,"CC1C(c2c(F)ccc(F)c2F)CC2NC(=O)c3cnc4c(c3)C[C@@]3(C4)C(=O)Nc4ncc(cc43)/C=C/COCCOCCCN1C2=O (single isomer, unassigned) [1-3 Isomer 2]",9.3
11,"CC1C(c2ccccc2)CC2NC(=O)c3cnc4c(c3)C[C@@]3(C4)C(=O)Nc4ncc(cc43)/C=C/COCCCOCCN1C2=O (single isomer, unassigned)",10.6
12,"O=C1NC2CC(c3c(F)ccc(F)c3F)CN(CCCCCOC/C=C/c3cnc4c(c3)[C@@]3(Cc5cc1cnc5C3)C(=O)N4)C2=O (single isomer, unassigned) [5-1 Isomer 2]",8.8
13,"CC1C(c2cc(F)cc(F)c2F)CC2NC(=O)c3cnc4c(c3)C[C@@]3(C4)C(=O)Nc4ncc(cc43)/C=C/COCCOCCN1C2=O (single isomer, unassigned) [3-1 Isomer 1]",11.1
14,"CC1C(c2ccccc2)CC2NC(=O)c3cnc4c(c3)C[C@@]3(C4)C(=O)Nc4ncc(cc43)CCCN(C)CCCCCN1C2=O (single isomer, unassigned)",10.5
15,"CC1C(c2ccccc2)CC2NC(=O)c3cnc4c(c3)C[C@@]3(C4)C(=O)Nc4ncc(cc43)/C=C/CN(C)CCN(C)CCN1C2=O (single isomer, unassigned)",10.0
16,"CC1C(c2c(F)ccc(F)c2F)CC2NC(=O)c3cnc4c(c3)C[C@@]3(C4)C(=O)Nc4ncc(cc43)/C=C/CCOCCOCCN1C2=O (single isomer, unassigned) [1-4 Isomer 1]",11.1
17,"CC1C(c2c(F)ccc(F)c2F)CC2NC(=O)c3cnc4c(c3)C[C@@]3(C4)C(=O)Nc4ncc(cc43)/C=C/COCCCCCN1C2=O (single isomer, unassigned) [1-2 Isomer 1]",11.3
18,"CC1C(c2ccccc2)CC2NC(=O)c3cnc4c(c3)C[C@@]3(C4)C(=O)Nc4ncc(cc43)/C=C/COCCOCCN1C2=O (single isomer, unassigned)",9.9
19,"CC1C(c2ccccc2)CC2NC(=O)c3cnc4c(c3)C[C@@]3(C4)C(=O)Nc4ncc(cc43)/C=C/COCCCCCN1C2=O (single isomer, unassigned) [2-2 Isomer 2]",8.0
20,CC1C(c2c(F)ccc(F)c2F)CC2NC(=O)c3cc4c(cn3)C[C@]3(C4)C(=O)Nc4ncc(cc43)/C=C/COCCOCCN1C2=O (some centres unmarked),9.7
21,"CC1C(c2ccccc2)CC2NC(=O)c3cc4c(cn3)C[C@]3(C4)C(=O)Nc4ncc(cc43)/C=C/COCCCCCN1C2=O (single isomer, unassigned)",9.6
22,"O=C1NC2CC(c3ccccc3)CN(CCOCCOCCOC/C=C/c3cnc4c(c3)[C@@]3(Cc5cc1cnc5C3)C(=O)N4)C2=O (single isomer, unassigned) [6-2 Isomer 1]",7.5

row,Structure (SMILES),CGRP pKb
1,"C[C@@H]1[C@H](c2c(F)ccc(F)c2F)C[C@@H]2NC(=O)c3cnc4c(c3)C[C@@]3(C4)C(=O)Nc4ncc(cc43)/C=C/CCCOCCCN1C2=O (single isomer, unassigned)",11.4
2,"CC1C(c2ccccc2)CC2NC(=O)c3cnc4c(c3)C[C@@]3(C4)C(=O)Nc4ncc(cc43)/C=C/CCCCN(C)CCN1C2=O (single isomer, unassigned)",10.2
3,"CC1C(c2cccc(F)c2F)CC2NC(=O)c3cnc4c(c3)C[C@@]3(C4)C(=O)Nc4ncc(cc43)/C=C/COCCCCCN1C2=O (single isomer, unassigned) [4-1 Isomer 1]",11.9
4,O=C1NC2CC(c3ccccc3)CN(CCOCCOCCOC/C=C/c3cnc4c(c3)[C@]3(Cc5ccc1cc5C3)C(=O)N4)C2=O (some centres unmarked),7.9
5,"CC1C(c2c(F)ccc(F)c2F)CC2NC(=O)c3cnc4c(c3)C[C@@]3(C4)C(=O)Nc4ncc(cc43)/C=C/COCCCOCCN1C2=O (single isomer, unassigned) [1-6 Isomer 2]",8.9
6,"O=C1NC2CC(c3ccccc3)CN(CCOCCOC/C=C/c3cnc4c(c3)[C@@]3(Cc5cc1cnc5C3)C(=O)N4)C2=O (single isomer, unassigned) [6-1 Isomer 1]",6.3
7,"O=C1NC2CC(c3c(F)ccc(F)c3F)CN(CCCCCOC/C=C/c3cnc4c(c3)[C@@]3(Cc5cc1cnc5C3)C(=O)N4)C2=O (single isomer, unassigned) [5-1 Isomer 3]",8.9
8,"CC1C(c2cc(F)cc(F)c2F)CC2NC(=O)c3cnc4c(c3)C[C@@]3(C4)C(=O)Nc4ncc(cc43)/C=C/COCCCCCN1C2=O (single isomer, unassigned)",8.9
9,"CC1C(c2c(F)ccc(F)c2F)CC2NC(=O)c3cnc4c(c3)C[C@@]3(C4)C(=O)Nc4ncc(cc43)/C=C/CCCOCCCN1C2=O (single isomer, unassigned) [1-7 Isomer 3]",9.1
10,"CC1C(c2cc(F)cc(F)c2F)CC2NC(=O)c3cnc4c(c3)C[C@@]3(C4)C(=O)Nc4ncc(cc43)/C=C/COCCOCCN1C2=O (single isomer, unassigned) [3-1 Isomer 2]",8.2
11,"CC1C(c2cccc(F)c2F)CC2NC(=O)c3cnc4c(c3)C[C@@]3(C4)C(=O)Nc4ncc(cc43)/C=C/COCCOCCN1C2=O (single isomer, unassigned) [4-2 Isomer 2]",9.2
12,"CC1C(c2ccccc2)CC2NC(=O)c3cnc4c(c3)C[C@@]3(C4)C(=O)Nc4ncc(cc43)/C=C/COCCNCCN1C2=O (single isomer, unassigned)",10.3
13,"CC1C(c2c(F)ccc(F)c2F)CC2NC(=O)c3cnc4c(c3)C[C@@]3(C4)C(=O)Nc4ncc(cc43)/C=C/COCCCC(F)(F)CN1C2=O (single isomer, unassigned) [1-8 Isomer 1]",11.3
14,"O=C1NC2CC(c3ccccc3)CN(CCOCCOC/C=C/c3cnc4c(c3)[C@@]3(Cc5cc1cnc5C3)C(=O)N4)C2=O (single isomer, unassigned) [6-1 Isomer 2]",8.5
15,"CC1C(c2ccccc2)CC2NC(=O)c3cnc4c(c3)C[C@@]3(C4)C(=O)Nc4ncc(cc43)/C=C/CCCCNCCN1C2=O (single isomer, unassigned)",10.7
16,"O=C1NC2CC(c3ccccc3)CN(CCOCCOCCCc3cnc4c(c3)[C@@]3(Cc5cc1cnc5C3)C(=O)N4)C2=O (single isomer, unassigned)",8.4
17,"CC1C(c2ccccc2)CC2NC(=O)c3ccc4c(c3)C[C@@]3(C4)C(=O)Nc4ncc(cc43)/C=C/COCCOCCN1C2=O (single isomer, unassigned) [9-1 Mixture (Isomer 1)]",7.9
18,"CC1C(c2c(F)ccc(F)c2F)CC2NC(=O)c3cnc4c(c3)C[C@@]3(C4)C(=O)Nc4ncc(cc43)/C=C/COCCCOCCN1C2=O (single isomer, unassigned) [1-6 Isomer 1]",11.1
19,"O=C1NC2CC(c3ccccc3)CN(CCOCCOCCOCCCc3cnc4c(c3)[C@@]3(Cc5cc1cnc5C3)C(=O)N4)C2=O (single isomer, unassigned)",8.3
20,"CC1C(c2cccc(F)c2F)CC2NC(=O)c3cnc4c(c3)C[C@@]3(C4)C(=O)Nc4ncc(cc43)/C=C/COCCCCCN1C2=O (single isomer, unassigned) [4-1 Isomer 2]",9.7
21,"CC1C(c2c(F)ccc(F)c2F)CC2NC(=O)c3cnc4c(c3)C[C@@]3(C4)C(=O)Nc4ncc(cc43)/C=C/CCOCCCCN1C2=O (single isomer, unassigned) [1-5 Isomer 2]",7.7
22,"O=C1NC2CC(c3ccccc3)CN(CCOCCOC/C=C/c3cnc4c(c3)[C@]3(Cc5ccc1cc5C3)C(=O)N4)C2=O (single isomer, unassigned) [10-1 Isomer 2]",6.9
